Experimental data published in ChEMBL document CHEMBL1125719, “2-(3,4-Dichlorophenyl)-N-methyl-N-[2-(1-pyrrolidinyl)-1-substituted- ethyl]-acetamides: the use of conformational analysis in the development of a novel series of potent opioid kappa agonists” (1991).

Species: Mus musculus
Assay: Molar potency ratio relative to the standard agonist EKC on field-stimulated mouse vas deferens; Not Active

SMILES | Potency vs EKC
C[C@H](CN1CCCC1)N(C)C(=O)Cc1ccc(Cl)c(Cl)c1 | inactive
CN(CCN1CCCC1)C(=O)Cc1ccc(Cl)c(Cl)c1 | inactive
C[C@H]([C@H](C)N(C)C(=O)Cc1ccc(Cl)c(Cl)c1)N1CCCC1 | inactive

Activity calls are given as the source filed them. The calls are words filed in the database; no cut-off is given here.
